Measured values reported in patent publication US6140333A, “N-acyl cyclic amine derivatives” (priority 1998, dated 2000).

Sequences of proteins named here, by UniProt entry; tags and fusion partners are left off.
UniProt P08172, whole entry: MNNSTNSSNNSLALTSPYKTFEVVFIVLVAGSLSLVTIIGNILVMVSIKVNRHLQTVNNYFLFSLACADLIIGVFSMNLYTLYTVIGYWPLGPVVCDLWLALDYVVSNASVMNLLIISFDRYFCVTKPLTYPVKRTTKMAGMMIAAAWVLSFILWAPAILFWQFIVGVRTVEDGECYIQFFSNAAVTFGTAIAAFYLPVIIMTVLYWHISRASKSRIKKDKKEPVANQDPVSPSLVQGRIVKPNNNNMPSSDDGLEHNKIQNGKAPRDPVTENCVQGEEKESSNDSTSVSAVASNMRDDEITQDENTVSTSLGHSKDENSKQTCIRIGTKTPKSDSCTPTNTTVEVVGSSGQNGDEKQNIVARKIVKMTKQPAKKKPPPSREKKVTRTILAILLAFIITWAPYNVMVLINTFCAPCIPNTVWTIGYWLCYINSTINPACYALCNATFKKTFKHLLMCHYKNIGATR
UniProt P20309, whole entry: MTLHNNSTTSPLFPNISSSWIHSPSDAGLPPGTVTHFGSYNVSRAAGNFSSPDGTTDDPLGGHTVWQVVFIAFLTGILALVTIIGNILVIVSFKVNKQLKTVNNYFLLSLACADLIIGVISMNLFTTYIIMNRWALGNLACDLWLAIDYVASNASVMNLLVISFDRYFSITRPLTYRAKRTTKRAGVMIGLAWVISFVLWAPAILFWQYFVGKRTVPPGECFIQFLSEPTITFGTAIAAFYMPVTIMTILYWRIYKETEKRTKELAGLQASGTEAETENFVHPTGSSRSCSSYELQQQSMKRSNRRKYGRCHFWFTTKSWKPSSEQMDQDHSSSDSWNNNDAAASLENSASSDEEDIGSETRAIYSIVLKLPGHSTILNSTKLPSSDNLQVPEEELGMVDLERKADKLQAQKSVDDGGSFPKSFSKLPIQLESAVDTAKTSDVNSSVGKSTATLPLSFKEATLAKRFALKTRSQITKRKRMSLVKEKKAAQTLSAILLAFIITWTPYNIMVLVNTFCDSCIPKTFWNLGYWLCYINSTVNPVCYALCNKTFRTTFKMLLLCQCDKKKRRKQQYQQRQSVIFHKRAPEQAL

Experiments:
[1] = biological target: T1, m2 muscarinic acetylcholine receptor (Homo sapiens, UniProt P08172); assay type: binding; conditions: CHO cells expressing m2; 0.2 nM [3H]-N-methylscopolamine, pH 7.4, 120 min, room temperature
T1 construct: purchased Receptor Biology Inc; host or cells: CHO cells
Method: (§1) These tests were performed according to a modification of the method of Hargreaves et al. (Br. J. Pharmacol. 107: pp. 494-501, 1992). Thus, CHO cells expressing m2 and m3 muscarinic acetylcholine receptors (Receptor Biology Inc.) were incubated with 0.2 nM [^3 H]-N-methylscopolamine (84Ci/mmol, New England Nuclear, Inc.) and each compound of the present invention to be tested in 0.5 ml of 50 mM tris-HCl--10 mM MgCl2 --1 mM EDTA (pH 7.4) for 120 minutes at room temperature (about 20 to 25° C.), followed by suction filtration with a glass filter (Uni-Filter plate GF/C; Packard Instruments Co., Ind.) and washing four times with 1 ml of ice-cold Tris-HCl buffer. After the filter was dried for 1 hour at 50° C., a scintillator (Miroscinti 0; Packard Instruments Co., Inc.) was added, and the radioactivity of [^3 H]-N-methylscopolamine adsorbed by the filter was counted by a liquid scintillation counter (TopCount™; Packard Instruments Co., Inc.). Non-specific binding of [^3 H]-N-methylscopolamine was measured in the presence of 1 μM N-methylscopolamine, which was added. According to the method of Cheng and Prusoff (Biochem. Pharmacol. 22: pp. 3099-3108, 1973), the binding affinity (Ki value) of the compound of the present invention for muscarinic receptors was calculated from the concentration (IC50) of the test compound which achieved 50% inhibition of the binding of [^3 H]-N-methylscopolamine, labeled ligand.

[2] = biological target: T2, m3 muscarinic acetylcholine receptor (Homo sapiens, UniProt P20309); assay type: binding
T2 construct: purchased Receptor Biology Inc; host or cells: CHO cells
Method: as §1

NCCC1CCN(C(=O)[C@](O)(c2ccccc2)[C@@H]2CCC(F)(F)C2)CC1 [Example 13, 4-(2-Aminoethyl)-1-{(2R)-2-((1R)-3,3-difluorocyclopentyl)-2-hydroxy-2-phenylacetyl}piperidine]
Ki [1]: 630 nM
Ki ([2]; CHO cells expressing m3, 0.2 nM [3H]-N-methylscopolamine, pH 7.4, 120 min, room temperature): 3.7 nM
m2/m3 (ratio of Ki) ([2]; selectivity m2 over m3, binding): 170
